Bioassay records as filed in PubChem BioAssay.
Compounds with a hit are over-represented: about 1.5% of the library has one in this group of screens.
PGC1a acetyl inh: lowers PGC1a acetylation signal in U2OS cells. 0.17% of 350,000 active. inhibition, % at 15.6 µM. AlphaScreen anti-acetyl-lysine; with virally co-expressed GCN5 acetyltransferase;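 active = every replicate shows inhibition of at least 40%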
Cneo AK release: Cryptococcus neoformans lysis via adenylate kinase release; C. neoformans lysis, adenylate kinase release luminescence, 4 h; normalised: neutral wells 0, clomiphene wells 100; lysis activity, % at 15 µM; 0.2% of 360,000 active;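 active = mean lysis activity across replicates of at least 80%, whatever share of replicates individually reach that level; inactive = mean lysis activity below 80%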
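Assay system: C. neoformans cells. Amount: yeast cell density of 5 × 10^6 cells/mL. Technique: AK luminescence. Buffer or medium: YPD. Times: static 4 h at 37 °C with compound, 1 h detection. Dosing: single-point compound dose. Read-out: lysis from increased AK signal.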
Yeast UUG start-1: modulators of start codon recognition fidelity in yeast; AID 602363; activity score, % at 18.7 µM; S. cerevisiae UUG-firefly luciferase reporter, luminescence/redox ratio; actives 0.13% (n = 350,000);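 active = replicate mean at a twofold rise or more, about +100% in these data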;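 note: firefly luciferase made from a UUG start codon reports start codon fidelity; reporter light over untreated wells divided by growth signal over untreated wells; some hits fall short of that in this replicate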
HIV Env fusion: inhibitors of HIV Env-mediated cell fusion; HeLa-JRFL Env/CEM21 cell fusion, luciferase; inhibition, % at 12.3 µM; 1.1% of 360,000 active; AID 651610;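 active = mean replicate inhibition score of at least 50 and every replicate individually at or above 50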
FN deposition inh: fibronectin deposition inhibition. AH1F fibroblasts, Alexa488-fibronectin deposition fluorescence, overnight. inhibition, % at 12.6 µM. 0.086% of 350,000 active. AID 743247;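 active = mean inhibition across replicates of 30% or more, regardless of how many single replicates reach that level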
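Material: AH1F fibroblast monolayer depositing Alexa488-labelled fibronectin into matrix | Input: 10000 AH1F cells/well | Medium: DMEM plus 2% serum, read in PBS | Reagent: Alexa488-fibronectin, 24 nM final in well | Compound dosing: One dose per compound, pinned | Schedule: 1 h adhesion, overnight exposure | Measured by: Fluorescence at 485 nm excitation, 525 nm emission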
miR122 inh: miR-122 inhibition in Huh7 cells; Huh7 miR-122 Renilla luciferase sensor, 48 h; neutral wells = 0, positive control = 100; activation (reporter increase), % at 12.5 µM; 0.3% of 340,000 active; AID 602342;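 active = mean replicate activation score at least 90 and every replicate individually at or above 90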;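 also: higher luciferase means less miR-122 activity so hits act as miR-122 inhibitors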
Yeast UUG start-2: alters UUG start codon use in yeast; shares compounds with Yeast UUG start-1; S. cerevisiae UUG-start firefly luciferase, luminescence, 4 h; 100% means double the DMSO signal; activation, % at 38 µM; 540 tested, under 10 active;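 active = signal increase whose fitted curve reaches an absolute level of 40 at a concentration under 10 µM; inactive = activity opposite to the expected increase, or the rest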
Numbers stand for hits; i = inactive; nt = not tested or not shown.

SMILES | PGC1a acetyl inh | Cneo AK release | Yeast UUG start-1 | HIV Env fusion | FN deposition inh | miR122 inh | Yeast UUG start-2
CC(C)CC#Cc1ccc2c(c1)O[C@@H](CN(C)C(=O)c1cccnc1)[C@@H](C)CN([C@@H](C)CO)S2(=O)=O | i | i | 121.2 | i | nt | i | i
C[C@@H]1CN([C@@H](C)CO)S(=O)(=O)c2ccc(-c3cccnc3)cc2O[C@H]1CN(C)C(=O)c1cccc(F)c1 | i | i | i | i | i | i | nt
C[C@H]1CN([C@@H](C)CO)S(=O)(=O)c2ccc(-c3cccnc3)cc2O[C@@H]1CN(C)C(=O)c1cccc(F)c1 | i | i | 213.8 | i | i | i | i
COc1ccc(S(=O)(=O)N(C)C[C@@H]2Oc3cc(-c4cccc(F)c4)ccc3S(=O)(=O)N([C@@H](C)CO)C[C@@H]2C)cc1 | i | i | i | i | nt | i | nt
O=C(NCCCN1CCOCC1)C1CCC(=O)N1C1CCCCC1 (stereo not given) | i | i | i | i | i | i | nt
C[C@@H]1CN([C@@H](C)CO)C(=O)Cc2cc(NS(=O)(=O)c3ccccc3)ccc2O[C@H]1CN(C)Cc1ccc(C(F)(F)F)cc1 | i | i | 159.4 | nt | nt | i | i
CC(C)NC(=O)N(C)C[C@@H]1Oc2ccc(NC(=O)Nc3cccc4ccccc34)cc2C(=O)N([C@@H](C)CO)C[C@@H]1C | i | i | 150.5 | i | nt | i | i
C[C@H]1CCCCO[C@@H](CN(C)Cc2ccccc2)[C@@H](C)CN([C@@H](C)CO)C(=O)c2cc(NC(=O)c3ccccc3)ccc2O1 | i | i | 147.1 | i | i | i | i
C[C@@H]1CN([C@@H](C)CO)C(=O)Cc2cc(NS(=O)(=O)c3ccccc3)ccc2O[C@@H]1CN(C)Cc1ccc(C(F)(F)F)cc1 | i | i | i | nt | nt | i | nt
CCN(CC)S(=O)(=O)c1cccc(-c2nnc(SCC(N)=O)n2CCc2ccccc2)c1 | i | i | i | i | i | i | nt
NC(=O)CSc1nnc(-c2ccncc2)n1CCc1ccccc1 | i | i | 173.1 | i | i | i | i
COc1cc(OC)cc(C(=O)Nc2cccc(NC(=O)c3cccs3)c2)c1 | i | i | 123.8 | i | i | i | i
C[C@@H]1CCCCO[C@@H](CN(C)Cc2ccncc2)[C@@H](C)CN([C@H](C)CO)C(=O)c2cc(NC(=O)Nc3ccc(F)cc3)ccc2O1 | i | i | i | i | i | i | nt
Cc1cc(O)ccc1C1(c2ccc(O)cc2C)OC(=O)c2ccccc21 | i | i | 444.1 | nt | nt | i | i
CC(=O)Nc1ccc(N/C(=N\S(=O)(=O)c2ccccc2)c2ccccc2)cc1 | i | i | i | i | nt | i | nt
CCOc1ccccc1/C=N/Nc1nc2c(N)ncnc2n1[C@H]1O[C@@H](CO)[C@H](O)[C@@H]1O | nt | nt | nt | i | i | nt | nt
CCN(CC)CC#CC(OC)(c1ccccc1)c1ccccc1 | nt | nt | nt | i | i | nt | i
Cc1cccc(NC(=O)Cc2cccs2)n1 | i | i | 542.3 | i | i | i | i
COC(=O)c1cnc(NNC(=O)c2ccc([N+](=O)[O-])cc2)nc1C(F)(F)F | nt | nt | nt | i | i | nt | nt
O=C(C1CCC1)N1C[C@H]2[C@@H](c3ccccc31)[C@H](CO)N2C(=O)c1ccccc1 | i | i | 101.1 | nt | i | i | i
O=C(C1CCC1)N1C[C@@H]2[C@H](c3ccccc31)[C@H](CO)N2C(=O)c1ccccc1F | i | i | 195.0 | nt | i | i | i
Cc1cc(N/N=C/c2ccc(N(C)C)cc2)c2ccccc2n1 | i | i | i | i | i | i | nt
COc1ccc(Nc2cc(C)nc(NCc3ccccc3)n2)cc1 | i | i | 623.9 | 71.0 | i | i | i
CCCCc1nc2cc(C(=O)N3CCCCC3C(=O)OC)ccc2o1 (stereo not given) | i | i | i | i | i | i | nt
O=C1CCC(=O)N1OCCCOc1ccc2c(c1)CCC2 | i | i | active | nt | nt | i | i
CCc1ccc(NC(=O)NCCN2CCCCC2)cc1 | i | i | 107.6 | i | i | i | i
CCc1ccc(N2CCN(CCNC(=O)Nc3ccccc3)CC2)cc1 | i | i | i | i | i | i | nt
CO[C@@H]1CN(C)C(=O)c2cc(NC(=O)c3ccccc3)ccc2OC[C@@H](C)N(C(=O)CN(C)C)C[C@@H]1C | i | i | i | nt | i | i | nt
